The target in assay [1] is Muscarinic acetylcholine receptor (UniProt P08172+P08173+P08912+P11229+P20309). Nature of the assay: Inhibition of [3H]NMS (N-[3H]methylscopolamine) binding to Muscarinic acetylcholine receptor (mAChR).
For a further assay, the target named is Acetylcholinesterase (Bos taurus, UniProt P23795). Nature of the assay: Inhibitory activity against Acetylcholinesterase (AChE).
In assay [2] the target is T1, Butyrylcholinesterase (Equus caballus, UniProt Q9N1N9). As to the kind of experiment: 50 percent inhibitory concentration of Butyrylcholinesterase (BChE). The conditions noted are these: read-out: I 50.
The target in assay [3] is T1, Butyrylcholinesterase. As to the kind of experiment: Inhibitory activity against Butyrylcholinesterase (BChE).

Molecules are shown by their SMILES. pIC50, pKi: −log10 of the molar value. Where only a bound is given, the exact number is not on record here.

As for `CN(C)C(=O)Oc1ccc[n+](C)c1COC(=O)C(C)(c1ccccc1)c1ccccc1.COS(=O)(=O)[O-]`, in assay [1], the negative-log Ki (pKi) (in general, the Ki on a negative log10 scale, so that one unit is a factor of ten) was 5.33.
As for `CN(C)C(=O)Oc1ccc[n+](C)c1COC(=O)C(C)(c1ccccc1)c1ccccc1`, the values for the pKi at Acetylcholinesterase and at Butyrylcholinesterase [3] were 5.25 and 5.50, respectively. For the same molecule, the pIC50 on Butyrylcholinesterase [2] is 6.77.
Molecule `CN(C)C(=O)Oc1ccc[n+](C)c1CO.[I-]` showed a pKi in assay [1] of less than 4.00.
At Acetylcholinesterase, `CN(C)C(=O)Oc1cccnc1CO` gave a pKi of 4.28.
`CN(C)C(=O)Oc1cccnc1COC(=O)C(C)(c1ccccc1)c1ccccc1`: the pKi on Acetylcholinesterase was 4.41; on Butyrylcholinesterase [3], 5.07; in assay [1] it was 4.38.

The values are drawn from ChEMBL document CHEMBL1135721, “Pyridophens: binary pyridostigmine-aprophen prodrugs with differential inhibition of acetylcholinesterase, butyrylcholinesterase, and muscarinic receptors” (2002).
